These results are taken from patent US11607446B2, “Personalized immunotherapy against several neuronal and brain tumors” (Immatics Biotechnologies GmbH, priority 2013, dated 2023).

Only a part of the results on these compounds is given; other tests are left out.

For the experiment, the system named is CD8+ T cells. Kind of experiment: In vitro immunogenicity of HLA-A*02 class I peptides: in vitro T-cell priming with aAPCs loaded with peptide/MHC complexes and anti-CD28 antibody, pMHC multimer readout. Format: cell-based, human. Conditions: HLA-A*02 peptides.

For the sequence ALSVRISNV, the Donors entry (healthy donors, specific multimer+ CD8+ T-cell line after in vitro stimulation) is “+++ (50%-70% = +++)”. Under “in vitro stimulated wells of healthy donors' CD8+ T cells, specific multimer+ readout”, the Wells result was “+ (<20% = +)”.
